## Binding of CDR-mutated scFvs to a peptide of the spike HR2 region

Antigen: PDVDLGDISGINAS, a 14-residue peptide of the SARS-CoV-2 spike HR2 region.

Parent scFv Ab-91: VL joined to VH by three GGGGS repeats. Changes lie in the heavy chain CDRs alone.
VL: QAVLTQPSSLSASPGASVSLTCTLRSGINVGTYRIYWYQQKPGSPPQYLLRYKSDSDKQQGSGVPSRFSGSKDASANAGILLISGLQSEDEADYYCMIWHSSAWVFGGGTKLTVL
VH: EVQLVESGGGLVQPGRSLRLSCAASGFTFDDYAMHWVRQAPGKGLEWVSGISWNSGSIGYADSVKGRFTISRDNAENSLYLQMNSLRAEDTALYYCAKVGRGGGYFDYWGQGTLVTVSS

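Library AAYL51 holds single substitutions and randomly drawn double and triple substitutions in the CDRs. AlphaSeq pools MATa yeast showing the antibodies with MATalpha yeast showing the peptide. After mating in shaken culture at 30 °C for 16 h, diploids were selected and their barcode pairs sequenced. Each replicate has its own calibration line, from reference interactions of the BCL2 family. Mating was done three times.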

Variants are written as CDR1, CDR2 and CDR3 of the heavy chain (limits as in the source). Parent: GFTFDDYAMH, GISWNSGSIGYADSVK, VGRGGGYFDY.
Values are log10 of the apparent Kd in nM; lower means stronger binding.
Averages over replicates are reported, and they cover detected replicates only.
"n.d." means that the variant was in the library but no mating with the target was seen in that replicate; the authors take this as a sign of poor binding, and no number exists.
Empty control strains, which show no peptide, gave a signal in 21% of pairings with library AAYL51; the median was 4.54 and 95% of these signals were weaker than 3.26. No background was subtracted. Also given: how often the same scFv was detected with the empty control strains, with their mean in brackets.

| CDR-H1 | CDR-H2 | CDR-H3 | log10 Kd (nM) by replicate | mean, log10 nM | control signals |
|---|---|---|---|---|---|
| GFTFDDVAMH | GISYNSGSIGYADFVK | VGRGGGYFDY | 1.24 / 1.28 / 0.95 | 1.15 | 1/9 (5.90) |
| GFTFDDEAMD | GISWNSGSIGYRDSVK | VGRGGGYFDY | 6.00 / n.d. / 4.58 | 5.29 | 4/9 (4.58) |
| GFTFDDYADH | GISWNSYQIGYADSVK | VGRGGGYFDY | 2.85 / n.d. / n.d. | 2.85 | 0/9 |
| GFTFDDYAMH | GISWMSPPIGYADSVK | VGRGGGYFDY | 4.06 / 3.79 / n.d. | 3.93 | 3/9 (4.32) |
| GPTFDDKAMH | GISWNSGSIGYADSVK | VGRGGGYFDY | n.d. / 6.12 / n.d. | 6.12 | 4/9 (4.48) |
| GFTFDDYAMH | GISWNSGSIKYADNVK | VGRGGGYFDY | 5.00 / n.d. / n.d. | 5.00 | 2/9 (3.78) |
| GFTFRDYAMH | GISWNSGKIGLADSVK | VGRGGGYFDY | n.d. / 3.87 / n.d. | 3.87 | 1/9 (3.05) |
| GFTFDDYAMH | GISWNLGSEGYAVSVK | VGRGGGYFDY | n.d. / n.d. / n.d. | n.d. | 0/9 |
| GFTFDDYAMH | GISWNSGTIGYIDSDK | VGRGGGYFDY | 4.79 / n.d. / 3.22 | 4.01 | 4/9 (3.91) |
| GFTFDDYAMH | GISWNSGSIGYCDQVK | VGRGYGYFDY | n.d. / n.d. / n.d. | n.d. | 1/9 (4.60) |
| GFTFDDYAMH | GISWNSGSIPYIDSMK | VGRGGGYFDY | n.d. / 3.27 / n.d. | 3.27 | 1/9 (5.20) |
| GFTFDDYAMP | GISWNSPSMGYADSVK | VGRGGGYFDY | n.d. / n.d. / n.d. | n.d. | 0/9 |
| GFTFWDYAMH | GIWANSGSIGYADSVK | VGRGGGYFDY | n.d. / n.d. / n.d. | n.d. | 0/9 |
| PFTFDDYAMH | GIHWNSGSIGYADSVK | VGRGGFYFDY | n.d. / n.d. / n.d. | n.d. | 0/9 |
| GFTFDDYAMH | GISWNSCSIGRADSVK | VGTGGGYFDY | 5.06 / n.d. / 5.88 | 5.47 | 6/9 (5.10) |
| GFTFDDYAMH | GISWNSGSICYADSVK | VGRGGDYSDY | 5.47 / 4.84 / 4.80 | 5.04 | 3/9 (4.46) |
| GFTFDDYAMH | GISWNSGNIGYADSVK | VGRDKGYFDY | 1.48 / 1.40 / 1.06 | 1.31 | 2/9 (4.68) |
| GFTSDDYAMH | GISWHSQSIGYADSVK | VGRGGGYFDY | 6.30 / 4.96 / n.d. | 5.63 | 2/9 (5.12) |
| GFTFDDYAWH | GISWNSGFIVYADSVK | VGRGGGYFDY | n.d. / n.d. / n.d. | n.d. | 0/9 |
| GFTFDCYAMH | GISWNSGSIGYADSVK | VGRKGGYSDY | 1.86 / 1.61 / 1.38 | 1.62 | 1/9 (5.73) |
| GFTFDDYAMH | GISWNSGSIGYADSVL | PGRGGEYFDY | 1.03 / 1.01 / 0.61 | 0.88 | 3/9 (4.89) |
| GWCFDDYAMH | GISWNSGSIGYADAVK | VGRGGGYFDY | 0.89 / 0.82 / 0.20 | 0.64 | 3/9 (4.53) |
| GFTFDDYAMH | GISWNSGCIGYADSVK | VGGGGGYFTY | 3.91 / 3.00 / n.d. | 3.45 | 0/9 |
| GFTFDDYAMH | GIDWNSGSIGYADSVK | RGRGGGYFDY | 5.66 / 5.38 / n.d. | 5.52 | 4/9 (4.16) |
| KFTFDDYAMS | GISWNSGSIGYADSVK | VGRGGGYYDY | n.d. / n.d. / n.d. | n.d. | 0/9 |
| GFTCDDYAMH | GRSWNSGSFGYADSVK | VGRGGGYFDY | n.d. / n.d. / n.d. | n.d. | 4/9 (4.51) |
| GFTFFDYAMH | GISWNKGSEGYADSVK | VGRGGGYFDY | n.d. / n.d. / n.d. | n.d. | 1/9 (2.73) |
| GFTVNDYAMH | GISWNDGSIGYADSVK | VGRGGGYFDY | 3.91 / n.d. / n.d. | 3.91 | 0/9 |
| GFAFDPYAMH | GISWNSGSIGYADSVK | VGRGGGYFTY | n.d. / 4.34 / 4.94 | 4.64 | 1/9 (3.55) |
| GSTFDHYAMC | GISWNSGSIGYADSVK | VGRGGGYFDY | 6.31 / 6.02 / n.d. | 6.17 | 1/9 (5.41) |

For reference, the parent read 1.86 as the reference entry and 0.88 as a member of this library.

Data: MIT Lincoln Laboratory AlphaSeq set, Engelhart et al. 2022, doi:10.1038/s41597-022-01779-4, as distributed in FLAb.